The target of assay [1] is T1, D(2) dopamine receptor (Homo sapiens, UniProt P14416). The experiment in a line: Displacement of [3H]spiperone from dopamine D2short receptor in CHO cells. It counts as cell-based. In outline:
(§1)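 Competition binding used membranes from stably transfected CHO cells expressing human D2long, D2short, D3 or D4.4 receptor, with [³H]spiperone at 0.1 nM final.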
On the technique in general: In a radioligand displacement assay an active substance lowers the binding of a labelled ligand.

Chains of the proteins cited; added tags and fusions are not shown.
UniProt P14416, whole entry: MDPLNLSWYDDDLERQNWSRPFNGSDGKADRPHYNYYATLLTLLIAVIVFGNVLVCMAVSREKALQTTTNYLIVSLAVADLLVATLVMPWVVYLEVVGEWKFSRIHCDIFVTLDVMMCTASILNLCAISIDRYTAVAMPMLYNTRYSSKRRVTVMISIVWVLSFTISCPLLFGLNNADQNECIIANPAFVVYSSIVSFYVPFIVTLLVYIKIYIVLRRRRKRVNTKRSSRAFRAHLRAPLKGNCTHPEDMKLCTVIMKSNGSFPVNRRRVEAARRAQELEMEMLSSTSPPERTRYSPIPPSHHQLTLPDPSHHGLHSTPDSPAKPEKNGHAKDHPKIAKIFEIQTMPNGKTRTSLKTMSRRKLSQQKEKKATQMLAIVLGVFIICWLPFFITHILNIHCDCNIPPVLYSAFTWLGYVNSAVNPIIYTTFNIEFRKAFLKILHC

Assay [2] concerns the target T1, D(2) dopamine receptor. The experiment in a line: Displacement of [3H]spiperone from dopamine D2long receptor in CHO cells. The format is cell-based. The essentials:
as §1

Usually Ki stands for a dissociation constant, usually derived from enzyme kinetics or from competition with a known ligand. Low values mean a stronger hold on the target, high ones a looser hold on the target.

Structures are written as SMILES.

Consider `CCN1CCC[C@H]1CNC(=O)c1c(O)c(Cl)cc(Cl)c1OC` [RACLOPRIDE], for which the figures for the Ki at D(2) dopamine receptor [1] and on D(2) dopamine receptor [2] were 31 nM and 17 nM, respectively.
